Patent US4537772A, “Enhancing absorption of drugs from gastrointestinal tract using acylcarnitines” (Merck & Co., Inc., priority 1984, dated 1985)

Assay: Rectal absorption of target drug from aqueous microenema, percent bioavailability versus intravenous administration
Details: rats

## Gentamicin sulfate
Target drug (2.5 mg; 0.1 mg for 363,586) with 5 mg palmitoylcarnitine
  Percent Bioavailability (mean ± SD) with Palmitoylcarnitine-Cl: 42 ± 5.2%
Target drug alone (2.5 mg; 0.1 mg for 363,586), absence of palmitoylcarnitine
  Percent Bioavailability (mean ± SD) Control: 4 ± 1.2%
